{
  "source": "patent US9138407B2",
  "about": "“Inhalatory pharmaceutical compositions in form of dry powders, solutions or suspensions obtained from the same and process for their preparation” (Eratech S.R.L., priority 2005, dated 2015)",
  "experiment": "Dimensional distribution of nebulized droplets by laser light scattering (Sympatec Helos)",
  "type": "physicochemical",
  "conditions": "nebulizer M (mesh or piezoelectric); after first minute of continuous delivery",
  "protocol": "has improved in relation to the droplet diameter of the nebulized product and/or to the dose delivered in a standard delivery time for a patient, correspondent to 5 minutes, we have dispersed in 2 ml of distilled water 40 mg of powder, produced according to example 4 later described, correspondent to a 240 μg dose of salbutamol, comparing it with an equivalent dose of salbutamol sulphate dissolved in 2 ml of distilled water.\nThe same formulation has been investigated measuring after the first minute of continuous delivery the dimensional distribution of the delivered droplets, by putting the device in front of a laser ray of a light scattering particle size analyzer, Sympatec Helos, provided of a R1 measuring lens for the range 0.1-35 μm.",
  "data": [
    {"substance": "salbutamol sulphate", "values": [
      {"measurement": "X50 of delivered droplets", "result": 10.17, "unit": "μm"}
    ]}
  ]
}
